Data from patent US9540361B2, “N-substituted azetidine derivatives” (Merck Sharp & Dohme B.V., priority 2010, dated 2017).

Chains of the proteins cited; added tags and fusions are not shown.
UniProt P03372, whole entry: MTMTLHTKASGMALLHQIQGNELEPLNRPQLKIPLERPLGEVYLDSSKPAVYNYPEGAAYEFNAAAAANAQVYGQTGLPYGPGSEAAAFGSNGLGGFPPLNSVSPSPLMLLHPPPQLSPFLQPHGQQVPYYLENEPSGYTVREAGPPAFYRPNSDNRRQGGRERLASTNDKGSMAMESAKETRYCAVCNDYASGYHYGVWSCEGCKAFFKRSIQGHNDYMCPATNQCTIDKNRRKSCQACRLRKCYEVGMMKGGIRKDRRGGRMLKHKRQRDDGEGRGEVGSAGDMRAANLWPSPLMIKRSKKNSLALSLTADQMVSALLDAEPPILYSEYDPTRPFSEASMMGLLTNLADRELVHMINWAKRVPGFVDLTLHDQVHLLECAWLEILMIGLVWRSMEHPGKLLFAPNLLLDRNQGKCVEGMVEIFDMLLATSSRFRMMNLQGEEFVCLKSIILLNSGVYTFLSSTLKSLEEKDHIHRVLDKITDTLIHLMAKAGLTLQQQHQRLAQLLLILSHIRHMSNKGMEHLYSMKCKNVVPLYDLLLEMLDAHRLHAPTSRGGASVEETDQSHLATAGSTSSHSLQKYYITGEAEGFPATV

What was measured:
[1] = target: human estrogen receptor α (hERα) (Homo sapiens, UniProt P03372); assay: antagonistic activity in CHO cells co-transfected with hERα, rat oxytocin promoter and luciferase reporter gene; assay type: cell-based; conditions: antagonism of 17β-estradiol-induced transactivation, CHO-hERα-RO-LUC
Procedure: The antagonistic activity of compounds on the estrogen receptors was determined in an in vitro bioassay with recombinant Chinese Hamster Ovary (CHO) cells stably co-transfected with the human estrogen receptor α (hERα), the rat oxytocin promoter (RO) and the luciferase reporter gene (LUC). The potency of a test compound to antagonize the transactivation of the enzyme luciferase by 17β-estradiol and mediated via the estrogen receptors hERα is expressed as IC50 in mol/l and/or as pIC50 (−log(IC50)) and/or as percentage (%) relative to the IC50 of the standard anti-estrogen ICI 164.384 (potency test compound=(IC50 ICI 164,384/IC50 test compound)×100%). The antagonistic efficacy, i.e. the amount of maximal inhibition of the 17β-estradiol activated receptor by a compound, is expressed as fraction relative to the maximal inhibition as induced by the standard anti-estrogen ICI 164,384 (efficacy test compound=(maximal inhibition test compound/maximal inhibition ICI 164,384)). A more detailed description of the methodology can be found in De Gooyer et al., Steroids, 68 (2003) 21-30.

[2] = target: T1, estrogen receptor alpha (Homo sapiens, UniProt P03372); assay: ERα downregulation assay in T47D breast cancer cells (ERα ELISA); assay type: cell-based; conditions: downregulation of ERα relative to fulvestrant (100%), 1E-5 M, 24 hours, negative = upregulation
T1 construct: endogenous in cells; host or cells: T47D human breast cancer cells (ATCC)
Text: More specifically, this in vitro bioassay is used to determine the efficacy (fraction of maximal response) of the compound by comparing the data for this compound with those of the reference compound ICI 182,780 (fulvestrant) in the same test (downregulation of fulvestrant is 100% by definition).
A more detailed description of the method used is as follows.
Cell culture. The human epithelial breast cancer cell line T47D (origin: ATCC) was routinely maintained in a 1:1 mixture of Ham's F12 medium and Dulbecco's Modified Eagle Medium (Gibco) enriched with 5% fetal calf serum (Hyclone), 10 mM HEPES pH 7.5 and 100 μg/ml penicillin-streptomycin solution. Cells were grown in 80 cm2 culture flasks (Nunc, Roskilde, Denmark) and kept in an atmosphere of 5% CO2-95% air at 37 degrees Celsius. Cells were subcultured when they reached about 80-90% confluence, resulting in one passage a week. Subculturing includes detaching the cells using Cell Dissociation Buffer [Sigma] and subsequent inoculation at 1:5 or 1:10 in a new Roux flask (175 cc) and\or plating out in Nunclon™ Surface 96 wells microplates. The culture medium needs to be refreshed on day three or four of the incubation, if applicable.
Determination of ERα protein levels: T47D cells in the microplates are incubated with 1E-5 M test compound for 24 hours. The supernatant in all wells is carefully aspirated. […]

Substance: 4-(3-(2-chlorophenyl)-4-(4-(1-propylazetidin-3-yloxy)phenyl)isoxazol-5-yl)-phenol hydrochloride [compound 7au]
- ERα pIC50 [1]: 9.0
- DR (%) [2]: 89%
